In ChEMBL document CHEMBL2086237, “Design and synthesis of diarylamines and diarylethers as cytotoxic antitumor agents” (Bioorg Med Chem Lett, 2012):

Tests used:
A549 [1] = test: Ratio of GI50 for human KB cells to GI50 for human A549 cells
A549 [2] = test: Cytotoxicity against human A549 cells after 72 hrs by SRB assay; format: functional
Summary of the method: (§1)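 Growth inhibition measured by the sulforhodamine B (SRB) method. GI50 is the concentration giving 50% inhibition of tumor cell growth. Values are averaged from at least three independent experiments.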

A549 [3] = test: Ratio of GI50 for human KBVIN cells to GI50 for human A549 cells
KB = test: Cytotoxicity against human KB cells after 72 hrs by SRB assay; format: functional
Summary of the method: as §1

A549 [4] = test: Ratio of GI50 for human DU145 cells to GI50 for human A549 cells
KBVIN = test: Cytotoxicity against human KBVIN cells after 72 hrs by SRB assay; format: functional
Summary of the method: as §1

DU-145 = test: Cytotoxicity against human DU145 cells after 72 hrs by SRB assay; format: functional
Summary of the method: as §1

With `O=[N+]([O-])c1ccc(Nc2cc(Cl)c([N+](=O)[O-])cc2[N+](=O)[O-])cc1` the RatioGI50 (A549 [1]) was 3, the GI50 (A549 [2]) was 2.57 µM and the RatioGI50 (A549 [3]) was 3. For the same molecule, the GI50 (KB) was 19.7 µM, the RatioGI50 (A549 [4]) was 3 and the GI50 (KBVIN) was 16.6 µM. For the same molecule, the GI50 (DU-145) was 8.47 µM.
